Molecular target: CK2α (Homo sapiens, UniProt P68400)
Test: radiometric kinase assay dose-response, Lineweaver-Burk kinetics, reversibility by gel filtration; SAXS of the complex

Amino acid sequences for entries named in this document (tags omitted). Residues count along the entry.
UniProt P68400, 1-335 limits assumed: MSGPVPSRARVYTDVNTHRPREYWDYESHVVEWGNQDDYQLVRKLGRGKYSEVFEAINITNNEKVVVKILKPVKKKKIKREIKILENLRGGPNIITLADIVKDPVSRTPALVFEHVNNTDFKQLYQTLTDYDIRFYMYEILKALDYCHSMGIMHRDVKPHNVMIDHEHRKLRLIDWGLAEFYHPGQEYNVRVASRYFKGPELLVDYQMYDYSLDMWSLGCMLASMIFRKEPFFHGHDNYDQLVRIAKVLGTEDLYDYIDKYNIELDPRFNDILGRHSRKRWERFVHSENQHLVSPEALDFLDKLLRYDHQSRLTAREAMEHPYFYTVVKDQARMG

O=[N+]([O-])c1ccc2c(N=Nc3c(O)ccc4ccccc34)c(O)cc(S(=O)(=O)O)c2c1
IC50: 5 µM
